{
  "sequences": {"note": "Chains of the proteins cited; added tags and fusions are not shown.", "UniProt P34981, whole entry": "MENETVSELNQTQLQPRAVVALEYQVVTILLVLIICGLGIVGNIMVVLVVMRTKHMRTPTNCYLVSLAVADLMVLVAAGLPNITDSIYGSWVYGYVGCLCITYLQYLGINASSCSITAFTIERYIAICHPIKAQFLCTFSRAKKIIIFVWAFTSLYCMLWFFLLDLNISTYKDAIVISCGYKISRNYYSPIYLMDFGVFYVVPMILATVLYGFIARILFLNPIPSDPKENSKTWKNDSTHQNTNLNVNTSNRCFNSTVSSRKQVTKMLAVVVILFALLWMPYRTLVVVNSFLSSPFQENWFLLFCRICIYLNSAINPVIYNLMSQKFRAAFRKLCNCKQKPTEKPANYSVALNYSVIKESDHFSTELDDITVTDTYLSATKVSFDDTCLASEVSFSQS"},
  "source": "PubChem BioAssay AID493056",
  "about": "(National Center for Advancing Translational Sciences (NCATS), 2011)",
  "note": "The entries are a selection whose mix differs from that of the whole data set. Active and inactive are the calls of the source. Cut-off read from the data, not from the text of the source: active = enhancement above about 30%; inactive = the rest.",
  "data": [
    {"target": "Thyrotropin-releasing hormone receptor (Homo sapiens) (UniProt P34981)", "test": "qHTS for Small Molecule Agonists and Allosteric Enhancers of Human TRH Receptor: Primary Screen for Enhancers; note: 0% is about no effect", "conditions": "TRHR cells, fluo-8 calcium fluorescence, EC20 TRH enhancement; at 2 µM; stronger effect = higher value", "excerpt": "NIH Chemical Genomics Center [NCGC] NIH Molecular Libraries Probe Centers Network [MLPCN] MLPCN Grant: MH089816-01 Assay Submitter (PI): Marvin Gershengorn This project aims to identify small drug-like molecules that activate (agonists) the thyrotropin releasing hormone (TRH) receptor (TRHR) or enhance its TRH-stimulated activity (allosteric enhancers). TRHR, a drug-accessible cell surface receptor expressed in specific brain regions, and its ligand TRH have been implicated in several central nervous system disorders, including depression and anxiety. […]\nFor the HTS assay freshly prepared cells are plated at a density of 2000/well in 3 ul of complete DMEM medium containing 10% serum in 1536-well plates and cultured over night at 37 C in a humidified incubator with 5% CO2. […] For the assay, assay plates were loaded into the FDSS kinetic plate reader. […] The plate is measured for kinetically at 1 cycle/sec for 180 seconds and is considered to be the agonist portion of the assay (eg, compounds which activate a positive calcium response during this portion are flagged as potential agonists). Following the 180 second read, 1 ul of either an EC20 (positive modulation assay) is delivered by an onboard pipette head. […]", "values": [
      {"smiles": "CCC(=O)N1C2C3N(C(=O)CC)C1C1N(C(=O)CC)C(C(N1C(=O)CC)N3C(=O)CC)N2C(=O)CC", "enhancement": "inactive: 13.9%"}
    ]}
  ]
}
